# In BindingDB's records for doi:10.1016/s1097-2765(05)00089-4 (Mrc, 2000):
# Sequences of proteins named here, by UniProt entry; tags and fusion partners are left off. A change or cut given only in a name is not applied to a line headed by its entry.
# UniProt P48736: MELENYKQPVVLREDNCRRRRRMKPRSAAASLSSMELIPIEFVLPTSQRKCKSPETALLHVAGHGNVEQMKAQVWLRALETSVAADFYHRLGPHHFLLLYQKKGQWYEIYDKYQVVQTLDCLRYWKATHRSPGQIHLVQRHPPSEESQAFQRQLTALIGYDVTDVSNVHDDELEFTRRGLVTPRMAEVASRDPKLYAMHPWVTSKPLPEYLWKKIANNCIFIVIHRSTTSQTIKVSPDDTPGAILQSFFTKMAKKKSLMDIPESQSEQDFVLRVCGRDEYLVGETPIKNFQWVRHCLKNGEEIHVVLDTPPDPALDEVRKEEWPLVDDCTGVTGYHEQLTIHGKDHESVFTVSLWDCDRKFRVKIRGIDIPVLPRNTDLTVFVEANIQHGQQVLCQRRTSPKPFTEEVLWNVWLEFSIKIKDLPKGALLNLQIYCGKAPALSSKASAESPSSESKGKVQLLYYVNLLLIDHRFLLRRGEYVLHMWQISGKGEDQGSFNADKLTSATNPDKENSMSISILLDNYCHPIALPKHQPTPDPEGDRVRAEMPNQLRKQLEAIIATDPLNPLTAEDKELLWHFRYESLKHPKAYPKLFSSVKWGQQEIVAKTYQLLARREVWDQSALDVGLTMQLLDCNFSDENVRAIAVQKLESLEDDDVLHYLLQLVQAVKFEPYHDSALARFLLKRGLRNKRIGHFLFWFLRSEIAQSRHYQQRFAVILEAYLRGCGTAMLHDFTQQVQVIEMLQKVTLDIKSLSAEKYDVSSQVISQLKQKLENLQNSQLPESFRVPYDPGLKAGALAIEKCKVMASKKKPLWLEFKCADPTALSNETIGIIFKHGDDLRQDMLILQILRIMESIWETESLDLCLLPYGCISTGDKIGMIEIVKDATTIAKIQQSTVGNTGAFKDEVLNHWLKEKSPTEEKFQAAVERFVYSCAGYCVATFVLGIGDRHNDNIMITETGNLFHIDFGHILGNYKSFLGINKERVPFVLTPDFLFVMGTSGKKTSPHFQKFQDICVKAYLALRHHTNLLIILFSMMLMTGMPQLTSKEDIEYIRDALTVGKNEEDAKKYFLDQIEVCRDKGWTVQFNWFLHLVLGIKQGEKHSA
# Biological target: Phosphatidylinositol 4,5-bisphosphate 3-kinase catalytic subunit gamma isoform (Homo sapiens, UniProt P48736)
# Experiment: Fluorescence Assays for Determination of Binding Affinity.
# Settings: pH 7.2; 20 °C
structure (smiles),measurement,value
O=c1cc(N2CCOCC2)oc2c(-c3ccccc3)cccc12,Kd,0.21 µM
